# Reference: patent US20090093476A1, “PYRROLO[1,2-A]QUINOXALINE DERIVATIVES AS ADENOSINE A3 RECEPTOR MODULATORS AND USES THEREOF” (FAUST PHARMACEUTICALS, priority 2005, published 2009)
# Protein sequences, listed by entry. Tags and fused reporters are not part of them.
# UniProt P0DMS8, whole entry: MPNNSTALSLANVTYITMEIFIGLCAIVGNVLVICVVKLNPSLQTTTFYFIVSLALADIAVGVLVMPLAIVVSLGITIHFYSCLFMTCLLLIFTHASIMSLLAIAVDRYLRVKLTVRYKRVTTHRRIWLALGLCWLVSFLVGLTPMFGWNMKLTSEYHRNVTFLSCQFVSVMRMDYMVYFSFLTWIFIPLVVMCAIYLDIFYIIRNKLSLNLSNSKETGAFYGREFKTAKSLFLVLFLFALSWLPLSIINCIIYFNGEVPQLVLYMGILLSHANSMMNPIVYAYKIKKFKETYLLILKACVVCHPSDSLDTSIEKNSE
# Target: Human A3 receptor (Homo sapiens, UniProt P0DMS8)
# Test: Functional assay on human A3 receptor: forskolin-stimulated cAMP in CHO cells
# Format: cell-based
# Design: expressed in transfected cells; host or cells: CHO cells
# Conditions: forskolin 10 μM, example 1 10 μM, Cl-IB-MECA 0.1 μM, Basal 0, Forskolin 100
# Procedure: CHO cells expressing the human A3 receptor were grown overnight as a monolayer in 24 well tissue culture plates (400 μl/well; 2×10^5 cells/well). cAMP generation was performed in Dulbecco's modified Eagle's medium (DMEM)/N-2-hydroxyethylpiperazin-N-2-ethansulfonic acid (HEPES) buffer (0.60 g HEPES/50 ml DMEM pH 7.4). Each well was washed twice with HEPES/DMEM buffer (250 μl), and the following added: rolipram (50 μM) and cilostamide (50 μM). This was incubated for 30 min at 37° C. followed by the introduction of the compound of example 1 (10 μM) and Cl-IB-MECA (0.1 μM) or DMEM/HEPES. After a further 10 min of incubation, forskolin was added (10 μM). After a subsequent 15 min, incubation was stopped by aspirating the assay medium and by adding 200 μl of ice-cold 0.1M HCl. The amount of cAMP was determined by competition with [3H]cAMP for protein kinase A (PKA). Briefly, the sample, approximately 1.8 nM [3H]cAMP, and 100 μl of PKA solution were incubated on ice for at least 2.5 h. The incubations were stopped by rapid dilution with 2 ml of icecold Tris HCl buffer (pH 7.4), and bound radioactive material was then recovered by filtration through Whatman GF/C filters. Filters were additionally rinsed with 2×2 ml of Tris HCl buffer, and then the radioactivity was counted in Packard Emulsifier Safe scintillation fluid (3.5 mL). All data reflect three independent experiments.
smiles,measurement,setting,value
"CNC(=O)[C@H]1O[C@@H](n2cnc3c(NCc4cccc(I)c4)nc(Cl)nc32)[C@H](O)[C@@H]1O [Example 2-Cl-IB-MECA, 2-chloro-N^6 (3-iodobenzyl)-adenosine-5′-N-methyluronamide, reference compound]",cAMP levels,n = 1,23.252
same,cAMP levels,n = 2,23.252
same,cAMP levels,n = 3,14.006
